Earlier results in patent US20060258582A1, “Method of treating myelodysplastic syndromes” (Scios, Inc., priority 2004, published 2006).

The chains behind the UniProt entries cited, without tags or fusion partners.
UniProt Q16539, whole entry: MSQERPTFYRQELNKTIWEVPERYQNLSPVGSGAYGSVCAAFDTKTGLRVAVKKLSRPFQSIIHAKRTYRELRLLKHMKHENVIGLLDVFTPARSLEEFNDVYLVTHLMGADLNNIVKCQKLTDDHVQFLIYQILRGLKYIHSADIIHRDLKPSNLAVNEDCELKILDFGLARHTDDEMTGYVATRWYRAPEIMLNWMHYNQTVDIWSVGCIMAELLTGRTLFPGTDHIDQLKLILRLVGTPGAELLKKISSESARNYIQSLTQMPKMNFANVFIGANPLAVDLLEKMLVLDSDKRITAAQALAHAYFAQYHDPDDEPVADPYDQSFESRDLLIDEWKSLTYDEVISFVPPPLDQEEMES

Molecular target: p38 MAPK (Homo sapiens, UniProt Q16539)
Details: previous studies; pharmacological inhibition of p38 MAPK; cited from earlier work

Oc1ccc(-c2nc(-c3ccc(F)cc3)c(-c3ccncc3)[nH]2)cc1 [SB 202190]
myelosuppresion caused by IFN and TGF β: able to reverse
